# Measured melting point values of organic chemicals

From the experimental data distributed with OPERA 2.9.

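These are experimental values that the OPERA curators gathered from public databases to train and test their QSAR models. The files give a single number for a compound and property, which may rest on several reports. Conditions of the individual experiments are not part of the data. The measured form (salt, isomer or mixture) is not always the one drawn. Some entries may be limits or estimates that an upstream database listed as plain numbers.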

Melting points are in °C. Cells with "n/a" have no entry in this list.

| SMILES | name | MP (°C) |
|---|---|---|
| O=C(Cc1nc2ccccc2[nH]1)c1ccccc1 | 2-(1H-Benzimidazol-2-yl)-1-phenylethan-1-one | 181 |
| NN1C(=O)NC(c2ccccc2)(c2ccccc2)C1=O | N-Aminodiphenylhydantoin | 190 |
| CC(=O)N1CCc2ccccc2C1CC(=O)O (stereo unspecified) | (2-Acetyl-1,2,3,4-tetrahydroisoquinolin-1-yl)acetic acid | 165 |
| O=C(OCC(COC(=O)c1ccccc1)(COC(=O)c1ccccc1)COC(=O)c1ccccc1)c1ccccc1 | Pentaerythrityl tetrabenzoate | 101.1 |
| Cc1c(F)ccc([N+](=O)[O-])c1C | 1-Fluoro-2,3-dimethyl-4-nitrobenzene | 40.5 |
| NC(=O)CCNCCO | Propanamide, 3-[(2-hydroxyethyl)amino]- | 61 |
| CCCCCCCCCCCCCCOC(=O)CCCCCCCCCCCCC | Myristyl myristate | 42.25 |
| O=C1C(=O)N(Cc2ccc(Cl)cc2)c2ccccc21 | 1-(4-Chlorobenzyl)-1H-indole-2,3-dione | 164 |
| Cc1cc2c3ccccc3ccc2c2ccccc12 | 6-Methylchrysene | 160 |
| COc1ccc(F)c(F)c1C#N | 2,3-Difluoro-6-methoxybenzonitrile | 80.5 |
| Nc1ccc2c(c1)CCC(=O)N2 | 6-amino-3,4-dihydroquinolin-2(1H)-one | 171 |
| FC(F)(F)C(F)(F)C(F)(F)C(F)(F)C(F)(F)C(F)(F)C(F)(F)C(F)(F)CC[n+]1ccccc1.[I-] | n/a | 197 |
| O=C(O)c1ccccc1OCCOc1ccccc1 | 2-(2-phenoxyethoxy)benzoic acid | 85 |
| O=C(O[C@@H]1CO[C@@H]2OCC[C@@H]21)ON1C(=O)CCC1=O | n/a | 137.9 |
| CCOC(=O)c1cc2cc(C(=O)O)ccc2[nH]1 | 2-(Ethoxycarbonyl)-1H-indole-5-carboxylic acid | 248 |
| COC(=O)c1sc(N)c(C#N)c1C | methyl 5-amino-4-cyano-3-methylthiophene-2-carboxylate | 226 |
| C=C(C#N)C(=O)OCCc1ccccc1 | 2-Phenylethyl 2-cyano-2-propenoate | 34 |
| O=S(=O)(Cl)c1ccc2c(c1)CCCC2 | 5,6,7,8-Tetrahydronaphthalene-2-sulfonyl chloride | 45 |
| COC(=O)c1ccc(C)c(S(=O)(=O)Cl)c1 | Methyl 3-(chlorosulfonyl)-4-methylbenzoate | 46 |
| CCCSc1nsc(N)n1 | 3-(Propylsulfanyl)-1,2,4-thiadiazol-5-amine | 55 |
| O=C(O)c1ccc(-c2ccccc2F)o1 | 5-(2-fluorophenyl)-2-furoic acid | 174 |
| O=C1COc2ccc(C(=O)O)cc2N1 | 3-Oxo-3,4-dihydro-2H-1,4-benzoxazine-6-carboxylic acid | 229 |
| O=C(O)Cc1ccc2c(c1)OCCO2 | 1,4-Benzodioxan-6-ylacetic acid | 55 |
| Fc1ccc2c(Cl)ncnc2c1 | 4-Chloro-7-fluoroquinazoline | 91 |
| CCN(CC)S(=O)(=O)c1ccc(N2CCCCC2)c(N)c1 | 3-Amino-N,N-diethyl-4-piperidin-1-yl-benzenesulfonamide | 76 |
| O=C(CBr)c1cc2cc(Cl)ccc2o1 | 2-bromo-1-(5-chloro-1-benzofuran-2-yl)ethanone | 169 |
| CCn1c(NN)nc2ccccc2c1=O | 3-ethyl-2-hydrazinoquinazolin-4(3H)-one | 160 |
| Cn1c(=O)[nH]c2ccccc2c1=O | 3-methylquinazoline-2,4(1H,3H)-dione | 243 |
| CC(=O)Nc1cc(N)c(S(=O)(=O)[O-])cc1/N=N/c1cccc(S(=O)(=O)CCOS(=O)(=O)[O-])c1.[Na+].[Na+] | n/a | 155 |
| COc1ccccc1C(=O)NCC(=O)O | (2-Methoxy-benzoylamino)-acetic acid | 70 |
| Nc1cc(-c2ccccc2)nn1CCO | 2-(5-amino-3-phenyl-1H-pyrazol-1-yl)ethanol | 143 |
| FC(F)(F)C(F)(C(F)(F)F)C(F)(F)C(F)(F)C(F)(F)C(F)(F)C(F)(F)C(F)(F)C(F)(F)C(F)(F)CC1CO1 (stereo unspecified) | ((Perfluoro-9-methyldecyl)methyl)oxirane | 44.5 |
| O=C(O)c1ccc(C(c2ccc(C(=O)O)c([N+](=O)[O-])c2)(C(F)(F)F)C(F)(F)F)cc1[N+](=O)[O-] | n/a | 236.5 |
| Nc1nc(CN2CCCCC2)cs1 | 4-Piperidin-1-ylmethyl-thiazol-2-ylamine | 154 |

Again, the 5 entries with the lowest MP:

{"smiles": "C=C(C#N)C(=O)OCCc1ccccc1", "name": "2-Phenylethyl 2-cyano-2-propenoate", "MP (°C)": "34"}
{"smiles": "Cc1c(F)ccc([N+](=O)[O-])c1C", "name": "1-Fluoro-2,3-dimethyl-4-nitrobenzene", "MP (°C)": "40.5"}
{"smiles": "CCCCCCCCCCCCCCOC(=O)CCCCCCCCCCCCC", "name": "Myristyl myristate", "MP (°C)": "42.25"}
{"smiles": "FC(F)(F)C(F)(C(F)(F)F)C(F)(F)C(F)(F)C(F)(F)C(F)(F)C(F)(F)C(F)(F)C(F)(F)C(F)(F)CC1CO1", "stereo": "stereo unspecified", "name": "((Perfluoro-9-methyldecyl)methyl)oxirane", "MP (°C)": "44.5"}
{"smiles": "O=S(=O)(Cl)c1ccc2c(c1)CCCC2", "name": "5,6,7,8-Tetrahydronaphthalene-2-sulfonyl chloride", "MP (°C)": "45"}